Experimental data taken from patent publication US20250019427A1.

What was measured:
Human GDF15 Fc (human) [1] = target: T1, Human GDF15 Fc (human) (UniProt Q99988); assay: SPR Biacore, Fab monovalent
T1 sequence (chain, biotinylated (EZ-Link Sulfo-NHS-Biotinylation Kit) where printed as biotinylated): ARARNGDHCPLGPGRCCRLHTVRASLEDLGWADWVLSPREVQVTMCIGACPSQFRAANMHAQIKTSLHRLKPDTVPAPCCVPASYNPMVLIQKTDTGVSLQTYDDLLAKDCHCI

Human GDF15 Fc (human) [2] = target: T1, Human GDF15 Fc (human); assay: Octet BLI, Fab monovalent

Kd (Human GDF15 Fc (human) [1]): 0.117 nM | koff (Human GDF15 Fc (human) [1]): 0.000735 s⁻¹ | kon (Human GDF15 Fc (human) [1]): 6.29e+06 M⁻¹ s⁻¹ | Kd (Human GDF15 Fc (human) [2]): 1.24 nM
B1: Clone H Fab (Fab, V domains shown)
VH: QVQLVQSGAEVKKPGSSVKVSCKASGGTFSSYYISWVRQAPGQGLEWMGGIAPISGTASYAQKFQGRVTITADESTSTAYMELSSLRSEDTAVYYCARGLAYDGYFDLWGRGTLVTVSS
VL: DIVMTQSPLSLPVTPGEPASISCRSSQSLLYSNGYNYLDWYLQKPGQSPQLLIYLGSNRASGVPDRFSGSGSGTDFTLKISRVEAEDVGVYYCMQAIGVPLTFGGGTKVEIK
